Laboratory results from publication PMC4080885.

Amino acid sequences for entries named in this document (tags omitted). Residues count along the entry.
UniProt P12318, 34-317: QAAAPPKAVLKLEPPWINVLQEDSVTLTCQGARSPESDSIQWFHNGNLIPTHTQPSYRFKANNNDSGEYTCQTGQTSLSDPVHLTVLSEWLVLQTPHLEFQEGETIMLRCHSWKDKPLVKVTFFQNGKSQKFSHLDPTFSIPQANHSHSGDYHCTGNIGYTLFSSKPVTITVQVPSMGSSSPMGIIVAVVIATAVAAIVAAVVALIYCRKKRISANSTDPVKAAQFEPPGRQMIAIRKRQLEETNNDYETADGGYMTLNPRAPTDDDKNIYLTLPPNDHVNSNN

Columns and labels:
Test in all cases: flow cytometry on cells
[1] = target: human FcγRIIa-His131 (human) (UniProt P12318)
[2] = target: mnFcγRIIa-allele2 HLD (Mutant 3: P131H, M132L, N133D) (Macaca nemestrina)
[3] = target: M. nemestrina FcγRIIb1 (Macaca nemestrina)
[4] = target: M. nemestrina FcγRIIa allele 1 (Macaca nemestrina)
[5] = target: mnFcγRIIa-allele2 HLD +LF (Mutant 5: PMN→HLD with PY→LF) (Macaca nemestrina)
[6] = target: human FcγRIIa-His131 (human) (UniProt P12318); remark: listed apart in the source
[7] = target: M. nemestrina FcγRIIa allele 2 (Macaca nemestrina)

MFI [1] | MFI [2] | fold greater binding than huFcγRIIb [3] | MFI [4] | fold increase of binding against mnFcγRIIa-allele2 HLD [5] | MFI [6] | MFI [7] | Substance
57200 | 2900 | 10 fold | 5000 | 5 fold |  |  | human myeloma IgG1κ (antibody)
3600 | 300 |  | 360 | 10 fold |  |  | human myeloma IgG2κ (antibody)
70100 | 53400 |  | 70300 |  | 71000 | 11600 | human myeloma IgG3κ (antibody)

Read-outs that look alike come from different tables or passages of the source.
